Data on two substances can be found in US12723063B2, “GIPR-agonist compounds” (Eli Lilly and Company, priority 2019, dated 2026).

Protein sequences, listed by entry. Tags and fused reporters are not part of them. Residues count along the entry.
UniProt P43220, 24-463: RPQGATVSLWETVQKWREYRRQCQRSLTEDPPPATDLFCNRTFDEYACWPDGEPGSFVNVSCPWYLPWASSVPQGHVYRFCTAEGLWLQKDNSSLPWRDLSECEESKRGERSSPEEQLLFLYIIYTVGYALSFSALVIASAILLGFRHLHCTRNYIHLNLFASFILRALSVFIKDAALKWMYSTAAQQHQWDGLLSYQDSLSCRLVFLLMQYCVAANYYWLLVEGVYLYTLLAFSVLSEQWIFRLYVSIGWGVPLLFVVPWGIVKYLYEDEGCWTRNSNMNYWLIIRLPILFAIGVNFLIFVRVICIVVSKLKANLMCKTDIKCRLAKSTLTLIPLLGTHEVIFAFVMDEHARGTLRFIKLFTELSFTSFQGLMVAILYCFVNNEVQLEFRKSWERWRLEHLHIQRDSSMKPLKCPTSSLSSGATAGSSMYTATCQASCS
UniProt P47871, 26-477: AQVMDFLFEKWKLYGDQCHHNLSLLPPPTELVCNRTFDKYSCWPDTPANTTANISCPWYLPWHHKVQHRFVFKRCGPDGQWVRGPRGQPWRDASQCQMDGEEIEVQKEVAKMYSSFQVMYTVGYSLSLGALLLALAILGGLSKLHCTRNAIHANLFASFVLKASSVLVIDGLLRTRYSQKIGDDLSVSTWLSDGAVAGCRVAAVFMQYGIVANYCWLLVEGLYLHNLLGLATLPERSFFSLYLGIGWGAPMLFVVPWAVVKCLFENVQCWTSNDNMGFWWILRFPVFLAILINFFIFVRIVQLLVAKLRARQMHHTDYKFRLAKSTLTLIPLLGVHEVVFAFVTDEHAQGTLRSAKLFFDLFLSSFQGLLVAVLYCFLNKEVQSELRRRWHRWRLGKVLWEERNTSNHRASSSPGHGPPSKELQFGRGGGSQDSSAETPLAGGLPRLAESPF

Assay [1] has as its target T1, human GLP-1R (Homo sapiens, UniProt P43220).
T1 construct: expressed in transfected cells; crude membranes
The experiment in a line: [125I]-GLP-1 binding, SPA with WGA beads, 0.1% bacitracin. As to conditions: read-out: hGLP1R Ki, geometric mean. On the procedure:
(§1) Stably transfected cell lines are prepared by subcloning receptor cDNA into a pcDNA3 expression plasmid and transfected into human embryonic kidney (HEK) 293 (hGcgR and hGLP-1R) or Chinese Hamster Ovary (CHO) (hGIPR) cells followed by selection with Geneticin (hGLP-1R and hGIPR) or hygromycin B (hGcgR).
(§2) Two methods are used for the preparation of crude cell membranes.
Method 1: Frozen cell pellets are lysed on ice in hypotonic buffer containing 50 mM Tris HCl, pH 7.5, and Roche Complete™ Protease Inhibitors with EDTA. The cell suspension is disrupted using a glass Potter-Elvehjem homogenizer fitted with a Teflon® pestle for 25 strokes. […]
The equilibrium binding dissociation constants (Kd) for the various receptor/radioligand interactions are determined from homologous competition binding analysis instead of saturation binding due to high propanol content in the [^125I] stock material. […]
Data are analyzed using four-parameter (curve maximum, curve minimum, IC50, Hill slope) nonlinear regression routines (Genedata Screener, version 12.0.4, Genedata AG, Basal, Switzerland). […] Values for Ki are reported as the geometric mean, with error expressed as the standard error of the mean (SEM) and n is equal to the number of independent replicates (determined in assays performed on different days). […] SEM is only calculated when y=2 or greater. […]

For assay [2], the target named is T2, human GcgR (Homo sapiens, UniProt P47871).
T2 construct: expressed in transfected cells; crude membranes
Description: [125I]-Glucagon binding, SPA with WGA beads, 0.1% bacitracin. As to conditions: read-out: hGcgR Ki, geometric mean. Here is the method: as §1, §2
(§3) Method 1: Frozen cell pellets are lysed on ice in hypotonic buffer containing 50 mM Tris HCl, pH 7.5, and Roche Complete™ Protease Inhibitors with EDTA. The cell suspension is disrupted using a glass Potter-Elvehjem homogenizer fitted with a Teflon® pestle for 25 strokes. The homogenate is centrifuged at 4° C. at 1100× g for 10 minutes. […]
(§4) The equilibrium binding dissociation constants (Kd) for the various receptor/radioligand interactions are determined from homologous competition binding analysis instead of saturation binding due to high propanol content in the [^125I] stock material.
The human Geg receptor binding assays are performed using a Scintillation Proximity Assay (SPA) format with wheat germ agglutinin (WGA) beads (Perkin Elmer). […] Plates are sealed and mixed on a plate shaker (setting 6) for 1 minute and read with a PerkinElmer Trilux MicroBeta® scintillation counter after 12 hours of incubation/settling time at room temperature. […]

For assay [3], the target named is T3, human GIPR (Homo sapiens, UniProt P48546).
T3 construct: expressed in transfected cells; crude membranes
T3 sequence (P48546 22-466): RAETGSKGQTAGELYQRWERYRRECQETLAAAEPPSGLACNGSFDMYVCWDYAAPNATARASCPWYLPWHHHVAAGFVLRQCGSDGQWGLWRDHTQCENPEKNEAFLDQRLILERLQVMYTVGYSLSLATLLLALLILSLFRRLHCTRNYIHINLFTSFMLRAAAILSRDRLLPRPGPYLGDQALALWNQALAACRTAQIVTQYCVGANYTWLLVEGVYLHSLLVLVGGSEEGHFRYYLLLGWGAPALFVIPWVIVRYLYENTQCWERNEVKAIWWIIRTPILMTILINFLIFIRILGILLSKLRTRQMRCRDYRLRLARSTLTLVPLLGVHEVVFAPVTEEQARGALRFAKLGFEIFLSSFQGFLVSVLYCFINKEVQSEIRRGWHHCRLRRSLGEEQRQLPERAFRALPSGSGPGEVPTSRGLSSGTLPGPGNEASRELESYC
The experiment in a line: [125I]-GIP binding, SPA with WGA beads, 0.1% bacitracin. As to conditions: read-out: hGIPR Ki, geometric mean. On the procedure: as §1, §2, §3, §4
The binding buffer contains 25 mM HEPES, pH 7.4, 2.5 mM CaCl2), 1 mM MgCl2, 0.1% (w/v) bacitracin, 0.003% (w/v) TWEEN®-20, and Roche Complete™ Protease Inhibitors without EDTA. […] Plates are sealed and mixed on a plate shaker (setting 6) for 1 minute and read with a PerkinElmer Trilux MicroBeta® scintillation counter after 2.5 to 12 hours of incubation/settling time at room temperature. […]

The term Ki denotes a measure of affinity in units of concentration, obtained from inhibition or displacement. On to “GIP(1-42)-NH2 [hGIP-NH2, reference compound]”, for which the Ki in assay [1] worked out at 1.1 µM; in assay [2] it was 1.15 µM.
For the substance “Glucagon [hGlucagon, reference compound]”, the Ki is more than 4.94 µM in assay [1] and more than 2.42 µM in assay [3].
